The source of these data is IntAct's records for PubMed 31064842.

B1: Proteasomal ubiquitin receptor ADRM1 (Homo sapiens), Q16186 (parent)
chain: MTTSGALFPSLVPGSRGASNKYLVEFRAGKMSLKGTTVTPDKRKGLVYIQQTDDSLIHFCWKDRTSGNVEDDLIIFPDDCEFKRVPQCPSGRVYVLKFKAGSKRLFFWMQEPKTDQDEEHCRKVNEYLNNPPMPGALGASGSSGHELSALGGEGGLQSLLGNMSHSQLMQLIGPAGLGGLGGLGALTGPGLASLLGSSGPPGSSSSSSSRSQSAAVTPSSTTSSTRATPAPSAPAAASATSPSPAPSSGNGASTAASPTQPIQLSDLQSILATMNVPAGPAGGQQVDLASVLTPEIMAPILANADVQERLLPYLPSGESLPQTADEIQNTLTSPQFQQALGMFSAALASGQLGPLMCQFGLPAEAVEAANKGDVEAFAKAMQNNAKPEQKEGDTKDKKDEEEDMSLD

The variants in test [1] derive from B1. The conditions noted are these: with psmd1_human PSMD1, Q99460.
Variants of B1 are the subject of test [2]. Conditions: with psmd1_human PSMD1, Q99460. This is another data set of the same source.

For R104D, the “effect of a mutation on the interaction” value is on record as “disrupting interaction strength” in test [1] and “decreasing interaction strength” in test [2].

Regarding R104A, the “effect of a mutation on the interaction” value in test [1] is “decreasing interaction strength”.

Consider R104E, for which the entries for the “effect of a mutation on the interaction” value in test [1] and in test [2] were “disrupting interaction strength” and “decreasing interaction strength”, respectively.

As for K97A, the “effect of a mutation on the interaction” value in test [1] is “decreasing interaction strength”.

Turning to K97D, the “effect of a mutation on the interaction” value in test [1] is recorded as “disrupting interaction strength”; in test [2], “decreasing interaction strength”.

With K97E, the “effect of a mutation on the interaction” value is reported as “disrupting interaction strength” in test [1] and “decreasing interaction strength” in test [2].

With K83A, the “effect of a mutation on the interaction” value in test [1] was “decreasing interaction strength”; in test [2], “with no effect”.
